Assay results published in ChEMBL document CHEMBL1208707, “T-type calcium channel blockers: spiro-piperidine azetidines and azetidinones-optimization, design and synthesis” (Bioorg Med Chem Lett, 2010).

Organism: Homo sapiens
Assay: Protein binding in human plasma
Settings: read-out: PPB

A fraction unbound of 0.001 was found for O=C(Nc1ccc(F)c(F)c1)N1CCC2(CC1)C(=O)N(c1ccc(F)c(Cl)c1)C2c1ccccn1 (stereo in doubt; 40a) in this work.
